This is an account of results in publication PMC8155022 (Scientific Reports, 2021).

For this series the following is noted: no indications of off-target effects that limit further use.

Regarding `CC1CCCN1C(=O)c1nc(C(=O)NCC(C)(C)O)sc1-c1ccc(C(O)(C(F)(F)F)C(F)(F)F)c(Cl)c1Cl` (stereo not shown) [JNJ-61803534], the “tolerability in safety pharmacology studies” value is on record as “well tolerated”.
